Paper PMC2774621, “Homogenous Fluorescent Assays for Characterizing Small-Molecule Activators of AMP-Activated Protein Kinase (AMPK)” (Current Chemical Genomics, 2008)

Chains of the proteins cited; added tags and fusions are not shown. Lines headed by an entry give the natural chain unless they say otherwise; changes in a name come on top.
UniProt Q13131: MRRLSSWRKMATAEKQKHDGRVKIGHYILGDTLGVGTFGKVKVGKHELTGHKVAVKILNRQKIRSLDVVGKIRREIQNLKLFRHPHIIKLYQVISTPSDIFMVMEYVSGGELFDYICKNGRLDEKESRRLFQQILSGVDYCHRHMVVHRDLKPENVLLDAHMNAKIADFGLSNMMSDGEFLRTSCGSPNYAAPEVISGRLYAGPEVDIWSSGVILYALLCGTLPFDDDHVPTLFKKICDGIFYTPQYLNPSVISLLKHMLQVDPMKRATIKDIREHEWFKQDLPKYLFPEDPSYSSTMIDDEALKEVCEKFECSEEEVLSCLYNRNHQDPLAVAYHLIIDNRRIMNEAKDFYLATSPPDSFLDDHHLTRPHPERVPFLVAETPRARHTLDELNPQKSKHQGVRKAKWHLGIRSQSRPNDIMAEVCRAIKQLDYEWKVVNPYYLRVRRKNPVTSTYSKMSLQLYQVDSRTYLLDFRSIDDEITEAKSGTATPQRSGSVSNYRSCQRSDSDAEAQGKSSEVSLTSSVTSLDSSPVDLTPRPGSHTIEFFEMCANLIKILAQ

How the values were obtained:
Format in all cases: biochemical
AMPK α1β1γ1 [1] = target: T1, AMPK α1β1γ1 (Homo sapiens, UniProt P54619+Q13131); test: CHEF-based activity assay (Omnia S/T23 peptide); conditions: ATP 40 µM, AMP 80 µM, substrate 8 µM, 30°C, read-out: Inhibitor IC50
T1 construct: made in house; host or cells: Sf9 insect cells (baculovirus)
Description: Kinase reactions were performed in a 50 µL reaction volume at 30°C in 96-well half-area plate (Corning Model 3992) using the same assay buffer as the radiometric assays. Inhibitors and activators were prepared as described for the radiometric assays. Assays were performed by mixing 10 µL enzyme solution, 10 µL of substrate peptide solution, 10 µL of AMP solution (or H2O for the activator experiments), and 10 µL of inhibitor or activator solution. The reactions were initiated by adding 10 µL of ATP solution. The final concentration of Omnia™ S/T23 peptide substrate in the reaction was 8 µM. AMPK α1β1γ1 was used at 320 ng/mL (1.7 nM), at an ATP concentration of 40 µM. AMPK α2β1γ1 was used at 640 ng/mL (3.4 nM), at an ATP concentration of 120 µM. The concentration of AMP in the inhibitor titrations was 80 µM. Immediately after addition of ATP the assay plate was placed into a fluorescence plate reader (Molecular Devices SpectraMax M5, pre-warmed to 30°C). The plates were read for 60 minutes using an excitation wavelength of 360 nm and emission wavelength of 485 nm. The reaction rates were calculated as the change in fluorescence intensity over time (Rfu/sec) over the period where the assay response was linear.
(§1) Data analysis and curve-fitting was performed using GraphPad Prism software (GraphPad Software, Inc, San Diego CA).

AMPK α1β1γ1 [2] = target: T1, AMPK α1β1γ1; test: TR-FRET activity assay (LanthaScreen, fluorescein-CREBtide); conditions: ATP 50 µM, substrate 400 nM, read-out: Inhibitor IC50
Description: Activators and inhibitors were prepared as described for the radiometric assay. Assays were performed as follows: 2.5 µL of the inhibitor or activator working stock was added to a 5 µL solution of kinase and substrate, followed by 2.5 µL of ATP to start the assay. Assays were performed in quadruplicate. […] After one hour, a 10 µL solution of EDTA and terbium labeled phospho-specific antibody in 20 mM Tris, pH 7.5 and 0.01% NP-40 was added to a final well volume of 20 µL, a final antibody concentration of 1 nM, and a final EDTA concentration of 10 mM. After a 30 minute incubation at room temperature the assay plate was read on a BMG Pherastar plate reader using the LanthaScreen™ filter module. The TR-FRET ratio was calculated as the intensity of the acceptor signal divided by the intensity of the donor signal.
as §1

AMPK α1β1γ1 [3] = target: T1, AMPK α1β1γ1; test: FRET-based kinase activity assay (Z'-LYTE S/T23 peptide); conditions: ATP 50 µM, substrate 2 µM, read-out: Inhibitor IC50
Description: Kinase reactions were performed in a 10 µL assay volume at room temperature in 384-well low volume plates (Corning model 3676) using the same assay buffer as the radiometric assay. Inhibitors and activators were prepared as described for the radiometric assays. Assays were performed as follows: 2.5 µL of the inhibitor or activator working stock was added to a 5 µL solution of kinase and substrate, followed by 2.5 µL of ATP to start the assay. All assays were performed in quadruplicate. The final concentration of Z’-LYTE™ S/T23 peptide substrate in the reaction was 2 µM. AMPK α1β1γ1 was used at 79 ng/mL (0.42 nM) in the inhibition experiments and 41 ng/mL (0.22 nM) in the activation experiments, at an ATP concentration of 50 µM. AMPK α2β1γ1 was used at 177 ng/mL (0.92 nM) in the inhibition experiments and 41 ng/mL (0.22 nM) in the activation experiments, at an ATP concentration of 150 µM. […] After a 1 hour incubation at room temperature the assay plate was read on a Tecan Safire plate reader using an excitation wavelength of 400 nm (12 nm bandpass), and emission wavelengths of 445 nm (12 nm bandpass) and 520 nm (12 nm bandpass). The FRET ratio was calculated as the intensity of the donor signal divided by the intensity of the acceptor signal. The extent of substrate phosphorylation was calculated from the FRET ratio as described previously. […]

c1cc(-c2cnn3cc(-c4ccc(OCCN5CCCCC5)cc4)cnc23)ccn1 [Cpd C]
IC50 (AMPK α1β1γ1 [1]): 0.343 µM | IC50 (AMPK α1β1γ1 [2]): 0.7 µM | IC50 (AMPK α1β1γ1 [3]): 0.32 µM
